Here are results for 93 compounds from PubChem BioAssay AID1259422 (The Scripps Research Institute Molecular Screening Center, 2018).

This is a selection; strong and weak results do not stand in their true shares. Active and inactive are the calls of the source. Cut-off read from the data, not from the text of the source: active = inhibition above about 32%; inactive = the rest.

The nature of the assay: TEAD-YAP interaction inhibition, primary screen, TEAD-YAP interaction inhibitor project, luminescence, HEK-TIYL cells (AID 1259422).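 Note: 0% = median of test compound wells and 100% = reference inhibitor wells.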 The following applies: TEAD-Gal4/YAP UAS-luciferase luminescence, at 9.12 µM, hits give high values.
In general, inhibition refers to the drop in the measured response relative to a control, in per cent. As for `O=C(Nc1nnc(-c2cccc([N+](=O)[O-])c2)s1)c1ccc([N+](=O)[O-])cc1[N+](=O)[O-]`, the inhibition was inactive: -3.43%.
Then `Cc1cc(=O)[nH]c(N[N+](=O)[O-])n1`, with inactive: -1.35%.
Then `COc1ccc(C)cc1NC(=O)N(Cc1ccco1)C1CCN(CCc2ccccn2)CC1`, with inactive: 8.48%; and `CCOP(=S)(OCC)SCC(=O)NC(C)C(=O)NC` (stereo not drawn), with inactive: 0.88%.
Then `COc1ccc(CCN2CCC(N(Cc3cccnc3)C(C)=O)CC2)cc1`, with inactive: 2.94%; and `CN(C)P1(=O)Nc2ccccc2S1` (stereo not drawn), with inactive: 5.56%.
With `Cc1cccc(NP(=O)(c2ccccc2)c2ccccc2)n1`, the inhibition was inactive: -1.01%.
The result for `COP(=O)(OC)C(NC(=O)c1ccc(C)cc1)=C(Cl)Cl` reads inactive: 7.91%; that for `COC(=O)N(c1ccc(OC)cc1)P1(=S)OCC(C)O1` (stereo not drawn), inactive: -13.2%.
Then `CN(C)CCCN(C)Cc1cc2ccccc2o1`, with inactive: 6.41%; and `CC(C)NC(=O)NP(=O)(Oc1ccccc1)Oc1ccccc1`, with inactive: -0.7%; and `CCN(CCCl)c1ccc(C=C(C#N)C#N)c(C)c1`, with inactive: 0.77%.
The result for `COP1(=S)N=C2c3ccccc3CN2c2cc(N(C)C)ccc21` (stereo not drawn) reads inactive: 11.5%; that for `Nc1nonc1OCCOc1nonc1N`, inactive: 3.53%.
Turning to `CCOP(=S)(OCC)SCC(=O)NC(C)C(=O)O` (stereo not drawn), the inhibition is inactive: 10%.
As for `CCCOc1ccc(S(=O)(=O)N(CCCl)CCCl)cc1`, the inhibition is inactive: 3.06%.
As to `O=[N+]([O-])c1ccc2no[n+]([O-])c2c1`, the inhibition was inactive: -9.26%.
For the compound `O=[N+]([O-])c1cc([N+](=O)[O-])c(Nc2ccccc2)c([N+](=O)[O-])n1`, the inhibition is inactive: 16.6%.
The result for `O=C(NNC(=O)c1ccncc1)NP1Oc2ccccc2O1` reads inactive: 5.18%; that for `O=C(c1cccnc1)N(Cc1ccco1)C1CCN(CCc2ccc(Cl)cc2)CC1`, inactive: -4.75%.
The result for `O=P1(Nc2nc(-c3ccccc3)cs2)C=C(c2ccccc2)OC(c2ccccc2)=C1` reads inactive: -0.97%.
Then `O=[N+]([O-])c1ccc(/C=C/C=N/Nc2ccc([N+](=O)[O-])cc2[N+](=O)[O-])cc1`, with inactive: 4.92%; and `CC(C)OP(=O)(NC(C)(C)C)C(Cl)Cl` (stereo not drawn), with inactive: -4.42%.
Take `CCOP(=O)(OCC)C(=O)c1ccc(OC)cc1`: the inhibition is inactive: -1.26%.
In the case of `CC(C)OP(=O)(OC(C)C)C(=O)c1ccc(F)cc1`, the inhibition is inactive: 0.63%.
Then `O=[N+]([O-])c1cc([N+](=O)[O-])c2[nH]ncc2c1`, with inactive: 3.95%.
For the compound `O=C(Cn1cnc([N+](=O)[O-])n1)NCCO[N+](=O)[O-]`, the inhibition is inactive: -0.1%.
Then `CCOP(=O)(OCC)C(=O)c1ccccc1Cl`, with inactive: -0.11%; and `O=C(Nc1ccccc1[N+](=O)[O-])c1ccc([N+](=O)[O-])cc1[N+](=O)[O-]`, with inactive: 7.09%; and `COc1ccc(NC2=NCC(CBr)S2)cc1` (stereo not drawn), with inactive: -7.72%.
For `O=[N+]([O-])c1cc([N+](=O)[O-])c(CCN2CCOCC2)c([N+](=O)[O-])c1`, the inhibition was inactive: -10.2%.
For `CN(C(=O)COC(=O)C(O)(c1ccccc1)c1ccccc1)c1ccccc1`, the inhibition was inactive: 14.8%.
Regarding `O=[N+]([O-])c1ccc(Oc2ccccc2[N+](=O)[O-])c([N+](=O)[O-])c1`, the inhibition was inactive: -4.68%.
Turning to `CCOP(=Nc1nc2ccccc2n2nnnc12)(OCC)OCC`, the inhibition was inactive: -2.26%.
For `O=[N+]([O-])c1cc([N+](=O)[O-])c(OCC(O)C[n+]2ccccc2)c([N+](=O)[O-])c1` (stereo not drawn), the inhibition is inactive: 0.15%.
Then `Nc1c([N+](=O)[O-])cc([N+](=O)[O-])c(Nc2cccc(C(=O)O)c2)c1[N+](=O)[O-]`, with inactive: 5.72%; and `N=C1N=C(c2ccc([N+](=O)[O-])cc2)CC(C(Cl)(Cl)Cl)S1` (stereo not drawn), with inactive: -0.02%; and `Cc1cc(SC(NC(=O)CC(C)C)C(Cl)(Cl)Cl)ncn1` (stereo not drawn), with inactive: -1.07%.
Then `CC(=O)OC=C1c2cc([N+](=O)[O-])cc([N+](=O)[O-])c2-c2c1cc([N+](=O)[O-])cc2[N+](=O)[O-]`, with inactive: -6.03%.
As to `Nc1cc(N)c2nonc2c1[N+](=O)[O-]`, the inhibition was inactive: 1.27%.
Turning to `O=C(Nc1ccc([N+](=O)[O-])cc1Cl)c1ccc([N+](=O)[O-])cc1[N+](=O)[O-]`, the inhibition was inactive: 29.8%.
The result for `Oc1ccccc1CNc1ccccn1` reads inactive: -30.8%.
As to `COc1ccc2c(c1)nc(NCCCl)n2C`, the inhibition is inactive: 13.6%.
The result for `CCN(CC)C1=NP(=O)(c2ccccc2)NC(c2ccccc2)=C1C#N` (stereo not drawn) reads inactive: -3.62%.
`COc1ccc(CCN2CCC(N(Cc3ccco3)C(=O)NC(C)C)CC2)cc1`: the inhibition is inactive: -3.7%.
On to `Cc1cc(C)nc(SC(NC(=O)C(C)C)C(Cl)(Cl)Cl)n1` (stereo not drawn), for which the inhibition was inactive: 8.45%.
The result for `CCOC(=O)N1C2CCC1CC(OC(=O)C(O)(c1ccccc1)c1ccccc1)C2` (stereo not drawn) reads inactive: -14.2%.
The result for `CCOc1ccc(/C=C2/C(=O)NC(=O)N(Cc3ccco3)C2=O)cc1` reads inactive: -5.75%; that for `CCCCOP(=O)(OCCCC)SC`, inactive: -6.54%; that for `CCOP(=O)(OCC)SCC(=O)NCCC(=O)O`, inactive: 12.7%.
The result for `COC(=O)c1ccc(OP2(=S)OCC(C)(C)CO2)cc1` reads inactive: -23.7%; that for `O=C(Nc1ccc(C(F)(F)F)cc1[N+](=O)[O-])c1cc([N+](=O)[O-])cc([N+](=O)[O-])c1`, inactive: 12.3%.
With `NC(=O)c1cc([N+](=O)[O-])cc([N+](=O)[O-])c1N`, the inhibition was inactive: -3.81%.
Then `Cc1ccc(N/C(=N/P(=O)(N2CCOCC2)N2CCOCC2)N2CCOCC2)cc1`, with inactive: -8.97%.
Then `Cc1cc(C)nc(NNc2c([N+](=O)[O-])cc([N+](=O)[O-])c(C)c2[N+](=O)[O-])n1`, with inactive: -3.85%; and `Cc1ccc(S(=O)(=O)N2C(=O)CSC2C(Cl)(Cl)Cl)cc1` (stereo not drawn), with inactive: 24.3%.
Regarding `CCOP(=O)(Nc1cccc(C(F)(F)F)c1)OCC`, the inhibition was inactive: 4.74%.
Then `CCCCOP1(=S)N=C2c3ccccc3CN2c2cc(N(C)C)ccc21` (stereo not drawn), with inactive: 2.34%; and `O=P(Nc1ccccn1)(OCC(F)(F)F)Oc1ccccc1` (stereo not drawn), with inactive: 8.22%.
For the compound `O=C(OC1CN2CCC1CC2)C1COc2ccccc2O1` (stereo not drawn), the inhibition is inactive: 12%.
Then `COP(=O)(NS(=O)(=O)c1ccc(Cl)cc1)OC`, with inactive: -6.79%.
Then `O=C(CCNCCCl)c1ccccc1`, with inactive: -9.33%; and `O=C(N/N=C/c1ccc([N+](=O)[O-])cc1)c1cc([N+](=O)[O-])cc([N+](=O)[O-])c1`, with inactive: -1.63%; and `Cc1nc(Nc2cccc([N+](=O)[O-])c2)nc(Nc2cccc([N+](=O)[O-])c2)c1[N+](=O)[O-]`, with inactive: -5.02%.
With `Cc1cc(NP2(=O)C=C(c3ccccc3)SC(c3ccccc3)=C2)n[nH]1`, the inhibition was inactive: -7.71%.
Then `Cc1cccc(NC2=NCC(CBr)S2)c1` (stereo not drawn), with inactive: -14.9%.
The result for `Cc1c([N+](=O)[O-])cc(C(=O)Nc2ccc([N+](=O)[O-])cc2)cc1[N+](=O)[O-]` reads inactive: 2.14%; that for `CCOC(=O)c1ccccc1OP(=O)(OCC)SCC(C)C` (stereo not drawn), inactive: -7.33%; that for `Cc1c([N+](=O)[O-])c([N+](=O)[O-])nn1CC(=O)Nc1cc(O)cc([N+](=O)[O-])c1`, inactive: 5%.
As to `CCc1nc2c(n1)c1c(non1O)c1c2no[n+]1[O-]`, the inhibition was inactive: 2.81%.
On to `O=C(OC1CN2CCC1CC2)c1cccc(F)c1` (stereo not drawn), for which the inhibition is inactive: 1.04%.
With `O=P(/N=C(/N1CCOCC1)C(Cl)(Cl)Cl)(N1CCOCC1)N1CCOCC1`, the inhibition is inactive: 5.91%.
The result for `O=C(COC(=O)C(O)(c1ccccc1)c1ccccc1)NCc1cccs1` reads inactive: -0.1%; that for `CC(C)OC(=O)NC(SC#N)C(Cl)(Cl)Cl` (stereo not drawn), inactive: 12.1%.
Then `N=C(N)SCC(Br)CN1C(=O)c2ccccc2C1=O` (stereo not drawn), with inactive: -1.25%.
Then `O=[N+]([O-])c1cc([N+](=O)[O-])c2nc(-c3ccc([N+](=O)[O-])o3)[nH]c2c1`, with inactive: -16.9%; and `O=C(COC(=O)C(O)(c1ccccc1)c1ccccc1)NCc1ccc2c(c1)OCO2`, with inactive: 8.2%.
For `CCOP(=O)(NNc1ccccc1)OCC`, the inhibition is inactive: -2.75%.
Then `Cn1c(SCC(=O)c2ccccc2OC(F)F)nc2ccccc21`, with inactive: -2.68%.
Then `ClCCN1CCn2c1nc1ccccc12`, with inactive: -10.9%; and `CC(C)NC(=O)N(Cc1ccco1)C1CCN(CCc2ccccn2)CC1`, with inactive: -0.82%.
The result for `Cc1cc(NP2(=O)C=C(c3ccccc3)OC(c3ccccc3)=C2)n[nH]1` reads inactive: 3.58%; that for `CCOP(=S)(OCC)c1cccc(C(=O)O)c1`, inactive: -8.26%.
As for `O=[N+]([O-])c1cc([N+](=O)[O-])c(SCCNc2ccccc2)c([N+](=O)[O-])c1`, the inhibition was inactive: 0.6%.
Consider `CC(C)(C)C(=O)NC(Sc1ccncn1)C(Cl)(Cl)Cl` (stereo not drawn), for which the inhibition was inactive: 1.95%.
The result for `C/C(=N\Nc1ccc([N+](=O)[O-])cc1[N+](=O)[O-])c1cccc([N+](=O)[O-])c1` reads inactive: -4.23%; that for `CN1C(=O)C2C(NC(=NCCN3CCOCC3)N2C)N(C)C1=O` (stereo not drawn), inactive: 15%.
The result for `Cc1c(Nc2ccc([N+](=O)[O-])cc2[N+](=O)[O-])cccc1[N+](=O)[O-]` reads inactive: 0.56%; that for `C[n+]1c2n(c3ccccc31)CC(Cl)CS2` (stereo not drawn), inactive: -2.77%; that for `O=C(c1ccc2c(c1)OCO2)N(Cc1ccco1)C1CCN(CCc2ccccn2)CC1`, inactive: -6.89%.
The result for `O=[N+]([O-])c1cc(/C=N/N=C/c2cc([N+](=O)[O-])cc([N+](=O)[O-])c2O)c(O)c([N+](=O)[O-])c1` reads inactive: -2.09%; that for `CCOP(=O)(Nc1ccc(Br)cc1)OCC`, inactive: 1.27%; that for `CCCCOP(=O)(OCCCC)N(CC)CC`, inactive: 0.69%.
